Earlier results on one substance are cited in patent publication US6599878B2, “Superoxygenating blood substitutes based on hemoglobin and dihydropyidine compositions” (priority 1992, dated 2003).

The conditions of the series: Vasey et al.; SNP 50.0 μg/kg/min or […]30 minutes; cited from earlier work.

In the case of sodium nitroprusside, the whole blood cyanide result is reported as “approximately 1.8 mg/L”.
